Test results as given in ChEMBL document CHEMBL5375953, “Discovery of Biaryl Amide Derivatives as Potent, Selective, and Orally Bioavailable RORγt Agonists for Cancer Immunotherapy” (J Med Chem, 2023).

Columns and labels:
[1] = test system: Lung adenocarcinoma cell line; experiment: Induction of Th17 cells differentiation in mouse Lung adenocarcinoma cell line xenografted in C57BL/6 mouse model assessed as increase in CD4+ Th17 production at 25 mg/kg,ip administrated on day 7 for 12 days by flow cytometry analysis; type: functional, organism-based; conditions: time 12.0 day
[2] = test system: Lung adenocarcinoma cell line; experiment: Induction of Th17 cells differentiation in mouse Lung adenocarcinoma cell line xenografted in C57BL/6 mouse model assessed as increase in RORC mRNA expression at 25 mg/kg,ip administrated on day 7 for 12 days by qPCR analysis; type: functional, organism-based; conditions: time 12.0 day

## CCS(=O)(=O)c1ccc(CC(=O)Nc2cc(Cl)c(-c3ccc(OC(C)C)c(C#N)c3)c(Cl)c2)cc1
[1]
  Activity: Active
[2]
  Activity: Active

The source made the active and inactive calls. No cut-off for these calls is given here.
